Test [1] relates to C1494U (RNA, rRNA) GGCGUCACUCCUUCGGGACAAGUCGCC
Put plainly: fluorescent displacement assay. The note with it: 50 mM Na+; F–NEO displaced (0.1 µM 1:1 complex), 10 mM HEPES, 0.4 mM EDTA, pH 7.

Test [2] relates to A1555G (RNA, rRNA) GGCGUCACCCCUUCGGGGCAAGUCGCC
Put plainly: fluorescent displacement assay. The note with it: 50 mM Na+; F–NEO displaced (0.1 µM 1:1 complex), 10 mM HEPES, 0.4 mM EDTA, pH 7.

The text below walks through data of paper PMC5971063 (ACS infectious diseases, 2017).

Turning to `NC[C@@H]1O[C@H](O[C@H]2[C@@H](O)[C@H](O[C@@H]3[C@@H](O)[C@H](N)C[C@H](N)[C@H]3O[C@H]3O[C@H](CN)[C@@H](O)[C@H](O)[C@H]3N)O[C@@H]2CO)[C@H](N)[C@@H](O)[C@@H]1O` [NEO, neomycin], the IC50 in test [1] turned out to be 67.9 ± 2.0 nM; in test [2], 119.2 ± 3.7 nM.

What is called IC50 is the concentration needed to halve the response being measured. A higher IC50 goes with a need for much substance.
